Experiments:
[1] = test system: Escherichia coli; test: Inhibition of NDM1 in Escherichia coli isolate 9 assessed as potentiation of meropenem-induced antibacterial activity by measuring meropenem MIC after 24 hrs by broth microdilution assay
[2] = test system: Citrobacter freundii; test: Inhibition of NDM1 in Citrobacter freundii clinical isolate 7 assessed as potentiation of meropenem-induced antibacterial activity by measuring meropenem MIC after 24 hrs by broth microdilution assay

MIC [1]: 0.5 µg/mL | MIC [2]: 0.5 µg/mL
SMILES: O=C(O)CN1CCN(CC(=O)O)CCN(CC(=O)O)CC1

From ChEMBL document CHEMBL4387701, “H2depda: An acyclic adjuvant potentiates meropenem activity in vitro against metallo-β-lactamase-producing enterobacterales” (Eur J Med Chem, 2019)
